By UniProt entry, the sequences of proteins in these tests, tags left out.
UniProt P34972, whole entry: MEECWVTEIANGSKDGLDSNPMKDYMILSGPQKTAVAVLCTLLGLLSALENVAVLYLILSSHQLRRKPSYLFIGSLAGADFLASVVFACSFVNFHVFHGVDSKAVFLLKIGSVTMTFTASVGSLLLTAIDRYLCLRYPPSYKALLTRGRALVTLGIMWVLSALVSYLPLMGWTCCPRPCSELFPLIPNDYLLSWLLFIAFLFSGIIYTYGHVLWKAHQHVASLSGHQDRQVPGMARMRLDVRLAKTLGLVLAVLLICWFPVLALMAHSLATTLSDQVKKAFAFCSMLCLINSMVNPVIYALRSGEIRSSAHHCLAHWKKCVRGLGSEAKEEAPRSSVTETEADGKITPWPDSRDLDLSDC

According to patent US20050009903A1, “CB2-selective cannabinoid analogues” (priority 2003, published 2005):

Assays:
Set-up in all cases: expressed in transfected cells
CB2 receptor [1] = biological target: T1, CB2 receptor (Homo sapiens, UniProt P34972); assay: [35S]GTPγS binding in human CB2 receptor-expressing CHO cell membranes; assay type: biochemical; conditions: in words
CB2 receptor [2] = biological target: T1, CB2 receptor; conditions: previously reported by the applicants (literature refs); read-out: Ki at CB2 receptor; cited from earlier work
CB2 receptor [3] = biological target: T1, CB2 receptor; assay: CB2 assay: displacement of [3H]CP-55,940 from cloned human CB2 receptor preparation (transfected HEK 293 cells); assay type: binding

| Compound | efficacy in the [35S]GTPγS assay relative to CP-55,940 (CB2 receptor [1]) | Ki (CB2 receptor [2]) | Ki (CB2 receptor [3]) |
| --- | --- | --- | --- |
| 1-Methoxy-3-(1′,1′-dimethylhexyl)-Δ^8-THC [Compound 6e] | partial agonists | 18 ± 2 nM | – |
| CC(C)(C)c1ccc2c(c1)OC(C)(C)C1CC=C(CO)CC21 (stereo not drawn) [Compound 9a, 1-Deoxy-3-(1′,1′-dimethylethyl)-11-hydroxy-Δ^8-THC] | – | – | 18 ± 2 nM |

Like-named read-outs stand apart in the source and are kept apart here.
